What was measured:
[1] = tested on: spontaneously hypertensive rats (SHR/Izm); assay: Examination of blood pressure-lowering action in spontaneously hypertensive rats (tail-cuff method); type: in vivo, rat; details: male SHR/Izm rats, 0.25 mg/kg oral, 2 hours and 4 hours after administration, N=5, p<0.05
Description: Male spontaneously hypertensive rats (SHR/Izm, 12 weeks old) were used as experimental animals. The feed used was solid SP feed (Funabashi Farm), and the drinking water used was tap water. Food intake and drinking water were unrestricted, including during the test. The rats after a habituation period of three weeks were used for the main test. The rats were divided into two groups: an LRA peptide administration group and a control group (each group: N=5).
The LRA peptide synthesized in Production Example 2 was dissolved in physiological saline to prepare a 0.25-mg/ml peptide solution. In the LRA peptide administration group, 0.25 mg/kg of the peptide solution was forcibly administered orally into the stomach by using a 1-ml-volume syringe and a Teflon (registered trademark) stomach tube. In the control group, physiological saline was forcibly orally administered in the same manner as in the sample administration group. Systolic blood pressure was measured by the tail-cuff method before administration, and 2 hours and 4 hours after administration. In the measurement of blood pressure, a blood pressure monitor (MK-2000ST, produced by Muromachi Kikai Co., Ltd.) was used. The degree of reduction in the systolic blood pressure 2 hours and 4 hours after administration compared with the systolic blood pressure before administration was used as an indicator.

Sequences of proteins named here, by UniProt entry; tags and fusion partners are left off. Residues count along the entry.
UniProt P12821, 30-1306, species assumed: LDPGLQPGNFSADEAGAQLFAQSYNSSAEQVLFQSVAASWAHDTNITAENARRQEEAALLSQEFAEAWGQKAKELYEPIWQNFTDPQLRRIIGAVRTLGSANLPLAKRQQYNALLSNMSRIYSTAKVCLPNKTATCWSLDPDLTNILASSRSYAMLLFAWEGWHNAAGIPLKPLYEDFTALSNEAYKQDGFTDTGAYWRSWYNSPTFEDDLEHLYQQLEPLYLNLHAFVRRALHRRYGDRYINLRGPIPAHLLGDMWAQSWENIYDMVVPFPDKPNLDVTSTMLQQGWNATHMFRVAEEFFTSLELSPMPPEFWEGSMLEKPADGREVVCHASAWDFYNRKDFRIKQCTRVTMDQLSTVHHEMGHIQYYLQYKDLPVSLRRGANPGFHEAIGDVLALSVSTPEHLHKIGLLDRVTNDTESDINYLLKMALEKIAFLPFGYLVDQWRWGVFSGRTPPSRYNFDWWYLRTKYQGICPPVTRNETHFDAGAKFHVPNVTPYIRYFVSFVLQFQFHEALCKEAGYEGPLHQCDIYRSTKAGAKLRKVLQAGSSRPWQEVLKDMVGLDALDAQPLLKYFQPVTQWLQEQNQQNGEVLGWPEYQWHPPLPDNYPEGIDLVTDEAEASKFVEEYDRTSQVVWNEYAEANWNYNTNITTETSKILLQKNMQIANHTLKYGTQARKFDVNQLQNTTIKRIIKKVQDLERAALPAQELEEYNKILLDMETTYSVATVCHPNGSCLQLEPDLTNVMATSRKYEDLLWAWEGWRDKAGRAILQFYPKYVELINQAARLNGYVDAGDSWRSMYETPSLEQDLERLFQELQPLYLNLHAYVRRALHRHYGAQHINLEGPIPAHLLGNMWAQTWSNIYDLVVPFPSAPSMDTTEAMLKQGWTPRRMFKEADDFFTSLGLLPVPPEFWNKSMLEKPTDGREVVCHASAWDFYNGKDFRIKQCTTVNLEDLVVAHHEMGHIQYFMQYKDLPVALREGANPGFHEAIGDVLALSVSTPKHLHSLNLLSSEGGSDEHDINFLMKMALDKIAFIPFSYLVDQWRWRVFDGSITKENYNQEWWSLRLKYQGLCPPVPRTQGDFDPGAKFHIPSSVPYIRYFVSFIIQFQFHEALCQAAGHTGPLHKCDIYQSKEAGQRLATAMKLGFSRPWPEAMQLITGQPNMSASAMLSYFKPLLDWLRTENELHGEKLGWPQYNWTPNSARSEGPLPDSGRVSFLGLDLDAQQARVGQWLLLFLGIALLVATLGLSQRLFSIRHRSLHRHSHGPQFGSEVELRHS

ACE = biological target: T1, ACE (Homo sapiens, UniProt P12821); assay: Measurement of ACE inhibitory activity (ACE Kit-WST); type: biochemical; details: 3HB-GGG substrate, N=3
T1 construct: purchased Dojindo Laboratories ACE Kit-WST
Protocol: Ultrapure water was added to the LRA peptide synthesized in Production Example 1 to prepare a 300 μM aqueous solution. Subsequently, 300-μM, 150-μM, 75-μM, and 30-μM aqueous solutions were each prepared by gradual dilution. These aqueous solutions were used as samples.
The ACE inhibitory activity of each sample was measured using an ACE inhibitory activity measurement kit (trade name: ACE Kit-WST, produced by Dojindo Laboratories). The kit is used to detect 3-hydroxybutyric acid (3HB) cut from 3-hydroxybutyryl-Gly-Gly-Gly (3HB-GGG) by an enzyme method. The operation was carried out according to the instruction manual of the kit, and the ACE inhibitory activity of each sample was measured (N=3). In the kit, the final concentration of the LRA peptide in each sample drops to ⅓.

For `CC(C)C[C@H](N)C(=O)N[C@@H](CCCNC(=N)N)C(=O)N[C@@H](C)C(=O)O` [LRA peptide, Leu-Arg-Ala], the “reduction in systolic blood pressure compared with the control group” value [1] was “significant reduction in systolic blood pressure” and the IC50 (ACE) was 62 µM.

— patent US10676505B2, “Tripeptides having angiotensin converting enzyme inhibitory activity and uses thereof” (SUNSTAR INC., priority 2016, dated 2020)
